Test system: H1792 cells treated with hTGFβ
Assay: Cell morphology (EMT hallmark) after long-term TGFβ treatment
Format: cell-based
Conditions: H1792 treated with hTGFβ 4 ng/ml for at least two weeks; BCA101 treatment
Procedure: Briefly, hKRAS G12C inhibitor resistance was induced in H1792 cells by treating the cells with hTGFβ (4 ng/ml) for at least two weeks. The resultant hKRAS G12C inhibitor resistant H1792 cells were treated with titrating concentrations of a AMG510 and a fixed concentration (50 μg/ml) of BCA101 for 72 hours. […] Cytotoxicity was evaluated using the CellTiter Glo® Luminescent Cell Viability Assay according to manufacturer's instructions (Promega) (as described in Example 6.3).

Q: How did the “cell morphology (TGFβ-induced spindle-like morphology, hallmark of EMT)” value turn out when “BCA101: αEGFR x TGFβRII ECD C-terminal LC fusion protein; amino acid sequence SEQ ID NOS: 125-126” was run?
A: restored to normal morphology

From patent publication US20240343813A1, “COMBINATION THERAPY AND RELATED METHODS” (Bicara Therapeutics Inc., priority 2023, published 2024)
